Assay [1] deals with T1, hIL-17A (Homo sapiens, UniProt Q16552). In words: Binding to hIL-17A protein through surface plasmon resonance (SPR, Biacore 8K). A general note: SPR reads the build-up and loss of mass on a sensor chip optically.
The target of assay [2] is human IL-17A (hIL-17A) (Homo sapiens, UniProt Q16552). Kind of assay: IL-17A enzyme-linked immunosorbent assay (competitive ELISA, receptor-ligand binding). Conditions: read-out: ELISA IC50, IL-17A coated, 16 nM IL-17R. On the procedure:
The inhibition of receptor-ligand binding by human IL-17A (hIL-17A) inhibitors was detected by competitive ELISA. A 96-well plate was inoculated 0.2 μg/ml IL-17 (Sino Biological Inc. Cat #12047-H07B) for incubation at 37° C. for 30 min, 100 μL for per well. The 96-well plate was washed four times with phosphate buffered saline (PBS) containing Tween-20 (PBST, 0.05% Tween-20), 200 μL for per well each time. 200 μL of 5% skim milk were added into the 96-well plate for incubation on a shaker at 25° C. for 30 min. The 96-well plate was washed four times with PBST (0.05% Tween-20), and added with 89 μL of PBST and 1 μL of a compound to be measured (100×), in which a concentration the compound to be measured (100×) was 0.003 μM-30 μM. The mixture was mixed evenly and incubated at 25° C. for 10 min. The mixture was added with 10 μL of 16 nM IL-17R, followed by incubation at 25° C. for 30 min. After washing the 96-well plate 4 times, 100 μL of anti-Fc tag horseradish peroxidase (HRP) coupled antibody were added for incubation on a shaker at 25° C. for 30 min. After washing the 96-well plate 4 times, 100 μL of 3,3′,5,5′-tetramethylbenzidine (TMB) substrate solution were added to the 96-well plate for incubation away from light at 25° C. After addition of 20% HCl, an absorbance was measure by a microplate reader at 450 nm.
The compounds prepared according to the above method were assayed for human IL-17A inhibitory activity.

Chains of the proteins cited; added tags and fusions are not shown. Residues count along the entry.
UniProt Q16552, 24-155 limits assumed: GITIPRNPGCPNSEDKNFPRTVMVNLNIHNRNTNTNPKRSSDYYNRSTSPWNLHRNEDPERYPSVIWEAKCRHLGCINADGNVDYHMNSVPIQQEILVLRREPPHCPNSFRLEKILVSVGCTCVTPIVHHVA
UniProt Q16552, 20-155 limits assumed: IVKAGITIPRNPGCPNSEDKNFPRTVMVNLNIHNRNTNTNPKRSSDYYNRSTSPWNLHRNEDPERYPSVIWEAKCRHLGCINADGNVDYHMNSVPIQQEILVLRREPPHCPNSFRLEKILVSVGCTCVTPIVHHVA

Assay [3] concerns the target T1, hIL-17A. Kind of assay: Inhibition of hIL-17A-induced chemokine GROα/CXCL1 production in HT-29 cell. In kind it is cell-based. Conditions: read-out: HT-29 IC50; GROα/CXCL1 in HT-29 cells, 30 ng/mL hIL-17A, 48 h. The method, then: Human colorectal adenocarcinoma cell HT-29 was inoculated to a 96-well plate (5×10^4 for per well), and incubated at 37° C. on an incubator overnight. A mixture of 30 ng/mL hIL-17A protein (R&D, #317-ILB) with gradient concentrations of IL-17A small molecule inhibitors or with 0.3 μg/mL positive control IL-17A antibody (R&D, #AF-317-NA) was incubated for 1 h at 37° C., and added into the 96-well plate to incubated with HT-29 at 37° C. for 48 h. A level of GROα in a cell culture supernatant was then detected using an ELISA kit for GROα (Cisbio, #62HCXC1peg).
Inhibitory effect of the compound prepared in Examples on hIL-17A-induced chemokine GROα/CXCL1 production in HT-29 cell was tested according to the methods of Experimental Examples 1 and 2. […] “-” indicated not tested. According to the results, the compounds provided herein have good human IL-17A inhibitory activity and can be effectively used in the treatment of diseases associated with abnormal hIL-17A activity.

Five compounds from patent publication US20230227437A1, “IMMUNOMODULATOR” (priority 2020, published 2023) can be followed below.

As a reminder, the pKd is the Kd on a negative log10 scale, so that one unit is a factor of ten. A low value points to a large Kd. The term pIC50 denotes the negative decadic logarithm of the IC50, by convention in mol/L.

pIC50, pKd: −log10 of the molar value.

Take `Cc1n[nH]c(C)c1-c1ccc(NC(=O)[C@@H](NC(=O)c2ccnn2C(C)C)C(C2CC2)C2CC2)cc1`: in assay [1], the negative-log Kd (pKd) is 8.82, the ka was 11900 M⁻¹ s⁻¹ and the kd was found to be 1.8e-05 s⁻¹.

For the compound `CCc1nonc1C(=O)N[C@H](C(=O)Nc1ccc(-c2c(C)n[nH]c2C)cc1)C1c2ccc(F)cc2OCC12CC2` (some centres unmarked), the pIC50 in assay [2] was 6.64; in assay [3], 7.47.

Regarding `Cc1n[nH]c(C)c1-c1ccc(NC(=O)[C@@H](NC(=O)c2ccnn2C(C)C)C2c3cc(F)cc(F)c3OCC23CC3)cn1` (some centres unmarked), the values for the pIC50 in assay [2] and in assay [3] were 6.29 and 6.01, respectively.

On to `Cc1n[nH]c(C)c1-c1ccc(NC(=O)[C@@H](NC(=O)c2ccnn2C(C)C)C2c3ccc(F)cc3OCC23CC3)cc1` (some centres unmarked), for which the pIC50 in assay [2] was 6.71; in assay [3] it was 7.26.

`Cc1n[nH]c(C)c1-c1ccc(NC(=O)[C@@H](NC(=O)c2nonc2C(C)C)C2c3ccc(F)cc3OCC23CC3)cn1` (some centres unmarked): the negative logarithm of the IC50 (pIC50) is 7.10 in assay [2] and 6.64 in assay [3].
